# Patent US20220315654A1
# How the values were obtained:
# [1] = biological target: human CD47 on cells (Raji, Nalm-6, HT-1080 tumor cells, human red blood cells) (human) (UniProt Q08722); assay: inhibition of human SIRPα-mouse Fc binding to PD-L1- CD47+ Nalm-6 cells, CellInsight CX5
# [2] = biological target: rec. cyCD47 protein (Macaca fascicularis); assay: ELISA; recombinant cynomolgus CD47 protein titrated (x axis, nM), fluorescence; format not described in the text
# [3] = biological target: human CD47 on cells (Raji, Nalm-6, HT-1080 tumor cells, human red blood cells) (human) (UniProt Q08722); assay: flow cytometry on Raji cells (CD47+, PD-L1 very low), detection with AF647 anti-human Fc F(ab')2
# [4] = biological target: human CD47 on cells (Raji, Nalm-6, HT-1080 tumor cells, human red blood cells) (human) (UniProt Q08722); assay: cell-based competitive binding assay on IFNg-induced HT-1080 cells (PD-L1+ CD47+): blocked ligand human SIRPa-mouse Fc, detected with anti-mouse Fc AF647, CellInsight CX5
# [5] = biological target: human CD47 on cells (Raji, Nalm-6, HT-1080 tumor cells, human red blood cells) (human) (UniProt Q08722); assay: flow cytometry on Nalm-6 cells (CD47+, PD-L1-), detection with AF647 anti-human Fc F(ab')2
substance,measurement,setting,value
anti-CD47 5F9 analog (antibody),IC50,[1],0.025 nM
same,EC50 (read off the curve),[2],0.4 nM
same,EC50 (read off the curve),[3],0.5 nM
same,IC50 (read off the curve),[4],0.02 nM
same,EC50 (read off the curve),[5],0.5 nM
